Experimental data reported in patent publication US8791123B2, “Substituted pyrazolo[1,5-a]pyrimidine compounds as Trk kinase inhibitors” (Array Biopharma, Inc., priority 2009, dated 2014).

Sequences of proteins named here, by UniProt entry; tags and fusion partners are left off. Residues count along the entry.
UniProt O60674, 808-1132: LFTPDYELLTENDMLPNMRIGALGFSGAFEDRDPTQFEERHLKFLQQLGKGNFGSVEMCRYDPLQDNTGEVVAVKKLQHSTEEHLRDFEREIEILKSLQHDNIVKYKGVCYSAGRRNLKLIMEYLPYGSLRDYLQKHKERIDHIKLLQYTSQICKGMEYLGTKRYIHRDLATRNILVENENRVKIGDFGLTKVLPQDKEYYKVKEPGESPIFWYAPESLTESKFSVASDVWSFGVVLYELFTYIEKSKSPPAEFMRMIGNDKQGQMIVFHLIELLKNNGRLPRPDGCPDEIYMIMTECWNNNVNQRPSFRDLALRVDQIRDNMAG
UniProt P04629, 440-796: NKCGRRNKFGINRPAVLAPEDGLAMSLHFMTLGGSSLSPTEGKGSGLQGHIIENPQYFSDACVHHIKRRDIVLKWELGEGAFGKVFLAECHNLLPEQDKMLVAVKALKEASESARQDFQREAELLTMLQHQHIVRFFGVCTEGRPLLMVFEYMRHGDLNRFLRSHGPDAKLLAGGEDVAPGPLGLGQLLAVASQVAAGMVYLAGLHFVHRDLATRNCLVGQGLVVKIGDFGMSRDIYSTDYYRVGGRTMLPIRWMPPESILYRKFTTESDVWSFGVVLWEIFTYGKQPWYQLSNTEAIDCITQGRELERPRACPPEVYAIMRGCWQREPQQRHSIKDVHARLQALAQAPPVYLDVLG

Experiments:
Human Jak2 kinase domain = Human Jak2 kinase domain (Homo sapiens (Human), UniProt O60674); assay: Jak2 Inhibition Assay (Omnia kinase assay); type: biochemical
Protocol: The assays described in Examples C, D, E and F for the determination of JAK1, JAK2, JAK3 and Tyk2 kinase activity, respectively, utilized the Omnia® Kinase fluorescence peptide substrate-based technology (Invitrogen). […] The reactions were therefore read at excitation 360 nm and emission was measured at 485 nm every 50 seconds for 45 minutes using a PerkinElmer EnVision Multilabel Plate Reader.
The final buffer conditions for each of the JAK1, JAK2, JAK3 and Tyk2 assays were as follows: 25 mM HEPES, pH 7.4, 10 mM MgCl2, 0.01% Triton X-100 and 1 mM DTT.
Two-μL aliquots of these were transferred to a fresh plate for a ten-fold intermediate dilution with assay buffer. Five-μL aliquots of the diluted compounds were then transferred to 20-μL of assay mixtures described in Examples C, D, E and F for a final concentration of DMSO of 2%. […] For each plate, percent of control (POC) values were calculated for each well according to the following equation:
[formula] • where • Xmax=Average Uninhibited Controls • Xmin=Average Background IC50's were estimated from the POC's using a standard 4-parameter logistic model:
[formula] • where • A=Minimum Y (Bottom Asymptote) • B=Maximum Y (Top Asymptote) • C=EC50 • D=Slope Factor • X=Compound Concentration (nM) • Y=POC
The IC50 is defined as the concentration of inhibitor at which the POC equals 50 for the fitted curve.
Compounds of Formula I were screened for their ability to inhibit Jak2 using the general enzyme inhibition assay method, in which the assay mixture contained 500 μM ATP, 10 μM Omnia® Y7 peptide (Catalog # IVGN KNZ3071C, Invitrogen Corporation, Carlsbad, Calif.) and 4 nM Jak2 in a total volume of 20 μL. Human Jak2 kinase domain comprising amino acids 808-1132 was purchased from Invitrogen Corporation, Carlsbad, Calif. (catalog # IVGN PV4210).

[1] = target: TrkA (histidine-tagged recombinant human TrkA, cytoplasmic domain) (Homo sapiens (Human), UniProt P04629); assay: TrkA ELISA Assay; type: biochemical
Protocol: An enzyme-linked immunosorbant assay (ELISA) was used to assess TrkA kinase activity in the presence of inhibitors. Immulon 4HBX 384-well microtiter plates (Thermo part #8755) were coated with a 0.025 mg/mL solution of poly (Glu, Ala, Tyr; 6:3:1; Sigma P3899). […] The reaction mixture was removed from the plate by washing with PBS containing 0.1% (v/v) Tween 20. The phosphorylated reaction product was detected using 0.2 μg/mL of a phosphotyrosine specific monoclonal antibody (clone PY20) conjugated to horseradish peroxidase in conjunction with the TMB Peroxidase Substrate System (KPL). After the addition of 1M phosphoric acid, the chromogenic substrate color intensity was quantitated via absorbance at 450 nm.

[2] = Table 1, 500 μM ATP, >1000 nM when >50% inhibition not observed at 1000 nM, read-out: Jak2 Enzyme IC50
[3] = Table 1, ELISA, 500 μM ATP, read-out: TrkA Enzyme IC50
[4] = Table 2, 500 μM ATP, read-out: Jak2 IC50

Row | SMILES | IC50 (Human Jak2 kinase domain; read-out: Jak2 Enzyme IC50) [nM] | IC50 [1, 3] [nM] | other results
1 | CC1(O)CCC(NC(=O)c2cnn3ccc(N4CCC[C@@H]4c4cc(F)ccc4F)nc23)CC1 (single isomer, unassigned) [Example 51] | – | – | IC50 (Human Jak2 kinase domain; [2]): 186 nM
2 | CC1(O)CCC(NC(=O)c2cnn3ccc(N4CCC[C@@H]4c4cc(F)ccc4F)nc23)CC1 (single isomer, unassigned; diastereomer 1) [Example 50] | – | – | IC50 (Human Jak2 kinase domain; [2]): 418 nM
3 | O=C(O)C1CCN(C(=O)c2cnn3ccc(N4CCC[C@@H]4c4cc(F)ccc4F)nc23)CC1 [Example 11, (R)-1-(5-(2-(2,5-difluorophenyl)pyrrolidin-1-yl)pyrazolo[1,5-a]pyrimidine-3-carbonyl)piperidine-4-carboxylic acid] | > 1000 | – | –
4 | N#CCNC(=O)c1cnn2ccc(N3CCC[C@@H]3c3cc(F)ccc3F)nc12 [Example 39, (R)—N-(cyanomethyl)-5-(2-(2,5-difluorophenyl)pyrrolidin-1-yl)pyrazolo[1,5-a]pyrimidine-3-carboxamide] | > 1000 | – | –
5 | NS(=O)(=O)N1CCC(NC(=O)c2cnn3ccc(N4CCC[C@@H]4c4cc(F)ccc4F)nc23)CC1 [Example 45, (R)-5-(2-(2,5-difluorophenyl)pyrrolidin-1-yl)-N-(1-sulfamoylpiperidin-4-yl)pyrazolo[1,5-a]pyrimidine-3-carboxamide] | – | 1.4 | –
6 | CS(=O)(=O)NCCNC(=O)c1cnn2ccc(N3CCC[C@@H]3c3cc(F)ccc3F)nc12 [Example 46, (R)-5-(2-(2,5-difluorophenyl)pyrrolidin-1-yl)-N-(2-(methylsulfonamido)ethyl)pyrazolo[1,5-a]pyrimidine-3-carboxamide] | > 1000 | – | –
7 | CC(CO)(CO)NC(=O)c1cnn2ccc(N3CCC[C@@H]3c3cc(F)ccc3F)nc12 [Example 60, (R)-5-(2-(2,5-difluorophenyl)pyrrolidin-1-yl)-N-(1,3-dihydroxy-2-methylpropan-2-yl)pyrazolo[1,5-a]pyrimidine-3-carboxamide] | – | – | IC50 (Human Jak2 kinase domain; [2]): > 1000 nM
8 | CC(C)(C#N)NC(=O)c1cnn2ccc(N3CCC[C@@H]3c3cncc(F)c3)nc12 [Example 69, (R)—N-(2-cyanopropan-2-yl)-5-(2-(5-fluoropyridin-3-yl)pyrrolidin-1-yl)pyrazolo[1,5-a]pyrimidine-3-carboxamide] | > 1000 | – | –
9 | O=C(NC1(C(=O)O)CC1)c1cnn2ccc(N3CCC[C@@H]3c3cc(F)ccc3F)nc12 [Example 84, (R)-1-(5-(2-(2,5-difluorophenyl)pyrrolidin-1-yl)pyrazolo[1,5-a]pyrimidine-3-carboxamido)cyclopropanecarboxylic acid] | > 1000 | – | –
10 | O=C(N[C@H]1CC[C@H](O)CC1)c1cnn2ccc(N3CCC[C@@H]3c3cncc(F)c3)nc12 [Example 99, 5-((R)-2-(5-fluoropyridin-3-yl)pyrrolidin-1-yl)-N-((trans)-4-hydroxycyclohexyl)pyrazolo[1,5-a]pyrimidine-3-carboxamide] | > 1000 | 7 | –
11 | O=C(N[C@H]1CC[C@@H](O)CC1)c1cnn2ccc(N3CCC[C@@H]3c3cncc(F)c3)nc12 [Example 100, 5-((R)-2-(5-fluoropyridin-3-yl)pyrrolidin-1-yl)-N-((cis)-4-hydroxycyclohexyl)pyrazolo[1,5-a]pyrimidine-3-carboxamide] | > 1000 | – | –

Continued, in another order:

Row | IC50 (Human Jak2 kinase domain; read-out: Jak2 Enzyme IC50) [nM] | IC50 [1, 3] [nM] | SMILES | other results
12 | 76.7 | 0.9 | COc1ncc(F)cc1[C@H]1CCCN1c1ccn2ncc(C(=O)N[C@H]3CC[C@H](O)CC3)c2n1 [Example 140, 5-((R)-2-(5-fluoro-2-methoxypyridin-3-yl)pyrrolidin-1-yl)-N-((trans)-4-hydroxycyclohexyl)pyrazolo[1,5-a]pyrimidine-3-carboxamide] | IC50 (Human Jak2 kinase domain; [4]): 76.7 nM; IC50 ([1]; Table 2, read-out: TrkA IC50): 0.9 nM
13 | > 1000 | – | Cc1ncc(F)cc1[C@H]1CCCN1c1ccn2ncc(C(=O)N[C@H]3CC[C@H](O)CC3)c2n1 [Example 194, 5-((R)-2-(5-fluoro-2-methylpyridin-3-yl)pyrrolidin-1-yl)-N-((trans)-4-hydroxycyclohexyl)pyrazolo[1,5-a]pyrimidine-3-carboxamide] | IC50 (Human Jak2 kinase domain; [4]): > 1000 nM
14 | > 1000 | – | Cc1ncc(F)cc1[C@H]1CCCN1c1ccn2ncc(C(=O)N[C@H]3CC[C@@H](O)CC3)c2n1 [Example 195, 5-((R)-2-(5-fluoro-2-methylpyridin-3-yl)pyrrolidin-1-yl)-N-((cis)-4-hydroxycyclohexyl)pyrazolo[1,5-a]pyrimidine-3-carboxamide] | –
15 | > 1000 | – | CCc1ncc(F)cc1[C@H]1CCCN1c1ccn2ncc(C(=O)N[C@H]3CC[C@H](O)CC3)c2n1 [Example 199, 5-((R)-2-(2-ethyl-5-fluoropyridin-3-yl)pyrrolidin-1-yl)-N-((trans)-4-hydroxycyclohexyl)pyrazolo[1,5-a]pyrimidine-3-carboxamide] | –
16 | > 1000 | – | C[C@@H](NC(=O)c1cnn2ccc(N3[C@H](CO)CC[C@@H]3c3cncc(F)c3)nc12)C(F)(F)F [Example 212, 5-((2R,5S)-2-(5-fluoropyridin-3-yl)-5-(hydroxymethyl)pyrrolidin-1-yl)-N—((R)-1,1,1-trifluoropropan-2-yl)pyrazolo[1,5-a]pyrimidine-3-carboxamide] | –
17 | > 1000 | – | C[C@H](NC(=O)c1cnn2ccc(N3[C@H](CO)CC[C@@H]3c3cncc(F)c3)nc12)C(F)(F)F [Example 213, 5-((2R,5S)-2-(5-fluoropyridin-3-yl)-5-(hydroxymethyl)pyrrolidin-1-yl)-N—((S)-1,1,1-trifluoropropan-2-yl)pyrazolo[1,5-a]pyrimidine-3-carboxamide] | –
18 | – | 3.1 | C[C@H](NC(=O)c1cnn2ccc(N3C[C@@H](O)C[C@@H]3c3cccc(F)c3)nc12)C(F)(F)F [Example 216, 5-((2R,4S)-2-(3-fluorophenyl)-4-hydroxypyrrolidin-1-yl)-N—((S)-1,1,1-trifluoropropan-2-yl)pyrazolo[1,5-a]pyrimidine-3-carboxamide] | –
19 | – | 2.8 | C[C@@H](NC(=O)c1cnn2ccc(N3CCC[C@@H]3c3cc(F)cn(C)c3=O)nc12)C1CC1 [Example 235, N-((R)-1-cyclopropylethyl)-5-((R)-2-(5-fluoro-1-methyl-2-oxo-1,2-dihydropyridin-3-yl)pyrrolidin-1-yl)pyrazolo[1,5-a]pyrimidine-3-carboxamide] | –
20 | 499 | 1.9 | Cn1cc(F)cc([C@H]2CCCN2c2ccn3ncc(C(=O)N[C@H]4CC[C@H](O)CC4)c3n2)c1=O [Example 238, 5-((R)-2-(5-fluoro-1-methyl-2-oxo-1,2-dihydropyridin-3-yl)pyrrolidin-1-yl)-N-((trans)-4-hydroxycyclohexyl)pyrazolo[1,5-a]pyrimidine-3-carboxamide] | –

Like-named read-outs stand apart in the source and are kept apart here.
